# Earlier results in PMC8008175.
# By UniProt entry, the sequences of proteins in these tests, tags left out. Residues count along the entry.
# UniProt P38764, 391-642: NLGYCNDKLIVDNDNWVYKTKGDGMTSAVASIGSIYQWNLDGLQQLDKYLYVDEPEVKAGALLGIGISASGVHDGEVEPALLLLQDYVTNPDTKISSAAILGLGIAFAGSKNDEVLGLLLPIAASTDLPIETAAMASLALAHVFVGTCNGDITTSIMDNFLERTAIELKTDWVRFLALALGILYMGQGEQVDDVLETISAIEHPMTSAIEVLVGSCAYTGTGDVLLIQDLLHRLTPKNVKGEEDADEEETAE
# Key:
# [1] = biological target: K11-linked Ub2 (UniProt P0CG48)
# [2] = biological target: K48-linked Ub2 (UniProt P0CG48)
substance,measurement,setting,value
Rpn1 391-642 (from UniProt P38764),Kd,[1],28 µM
same,Kd,[2],123 µM
